Data taken from US20080119513A1, “Sulfonamide Derivative Selectively Inhibiting Mmp-13” (priority 2004, published 2008).

By UniProt entry, the sequences of proteins in these tests, tags left out. Residues count along the entry.
UniProt P39900, 100-263 limits assumed: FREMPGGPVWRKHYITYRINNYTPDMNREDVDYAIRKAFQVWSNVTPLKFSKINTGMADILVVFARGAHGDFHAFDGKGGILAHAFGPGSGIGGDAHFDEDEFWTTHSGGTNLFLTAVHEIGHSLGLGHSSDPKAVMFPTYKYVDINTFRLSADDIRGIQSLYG
UniProt P22894, 99-262 limits assumed: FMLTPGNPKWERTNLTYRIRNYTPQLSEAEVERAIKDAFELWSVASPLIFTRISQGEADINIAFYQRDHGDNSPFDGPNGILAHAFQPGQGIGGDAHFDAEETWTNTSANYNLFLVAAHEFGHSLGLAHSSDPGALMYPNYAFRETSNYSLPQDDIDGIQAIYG
UniProt P14780, 107-707 limits assumed: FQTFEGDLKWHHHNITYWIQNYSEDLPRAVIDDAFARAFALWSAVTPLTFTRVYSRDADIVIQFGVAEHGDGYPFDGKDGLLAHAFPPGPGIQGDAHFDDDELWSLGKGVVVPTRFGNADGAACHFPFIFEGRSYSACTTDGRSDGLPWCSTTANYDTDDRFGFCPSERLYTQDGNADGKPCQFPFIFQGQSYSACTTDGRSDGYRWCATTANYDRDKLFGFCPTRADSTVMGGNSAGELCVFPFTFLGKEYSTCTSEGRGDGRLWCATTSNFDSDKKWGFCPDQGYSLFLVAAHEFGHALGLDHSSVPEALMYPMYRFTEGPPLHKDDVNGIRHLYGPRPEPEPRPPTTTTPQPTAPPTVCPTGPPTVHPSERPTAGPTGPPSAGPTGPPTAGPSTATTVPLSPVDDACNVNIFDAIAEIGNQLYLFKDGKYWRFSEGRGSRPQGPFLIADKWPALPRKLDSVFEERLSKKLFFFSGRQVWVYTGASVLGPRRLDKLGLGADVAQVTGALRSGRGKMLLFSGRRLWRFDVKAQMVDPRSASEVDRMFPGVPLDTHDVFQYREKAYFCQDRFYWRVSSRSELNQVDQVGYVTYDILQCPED
UniProt P08253, 110-660 limits assumed: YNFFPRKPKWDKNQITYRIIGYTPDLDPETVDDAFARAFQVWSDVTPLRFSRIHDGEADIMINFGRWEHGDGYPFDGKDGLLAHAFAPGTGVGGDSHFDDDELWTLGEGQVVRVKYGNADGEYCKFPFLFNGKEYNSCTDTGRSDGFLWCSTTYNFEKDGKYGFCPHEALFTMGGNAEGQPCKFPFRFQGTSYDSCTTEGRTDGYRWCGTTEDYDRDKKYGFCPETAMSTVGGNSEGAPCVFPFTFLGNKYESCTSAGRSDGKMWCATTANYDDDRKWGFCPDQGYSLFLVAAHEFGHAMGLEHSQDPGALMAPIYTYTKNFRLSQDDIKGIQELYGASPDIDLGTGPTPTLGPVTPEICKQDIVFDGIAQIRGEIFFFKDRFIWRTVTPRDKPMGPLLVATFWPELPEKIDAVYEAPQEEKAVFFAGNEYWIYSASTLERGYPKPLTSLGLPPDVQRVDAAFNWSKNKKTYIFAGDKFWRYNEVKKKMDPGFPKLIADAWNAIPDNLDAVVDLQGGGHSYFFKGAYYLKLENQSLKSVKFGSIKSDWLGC

Assays:
MMP-12 = MMP-12 (Homo sapiens, UniProt P39900); experiment: Assay for inhibitory activities on MMPs (fluorogenic peptide substrate), MMP-12; settings: read-out: MMP inhibitory activity IC50 MMP-12
Protocol: In regard to MMP-12, catalytic domain (^100Phe˜^263Gly) was amplified with RT-PCR from Human Placenta Total RNA. This was cloned in Escherichia coli expression vector pTrc99AHE inserted with His-tag sequence and enterokinase digestion-site, induced and expressed by IPTG (Isopropyl-β-D-thiogalactopyranoside) and expressed in an insoluble fraction. Isolation of MMP-12 from an insoluble fraction was carried out by dissolving in modifier (6 M urea) by a usual method and purification with metal chelate chromatography (Ni Chelateing Sepharose). And then removing modifier (6 M urea) with dialysis and refolding of the enzyme spontaneously gave activated MMP-12.
The enzymatic activity on MMPs was analyzed by the method described in “C. Graham Knight, Frances Willenbrock and Gillian Murphy: A novel coumarin-labelled peptide for sensitive continuous assays of the matrix metalloproteinases: FEBS LETT., 296, (1992), 263-266”. The substrate: MOCAc-Pro-Leu-Gly-Leu-A2Pr(DNP)-Ala-Arg-NH2 was purchased from Peptide Institute, Inc., Osaka, Japan. The measurement of the inhibitory activities (IC50) was carried out by the following four methods; […]
(§1) IC50 values were calculated by using the following formula and each fluorescence values of above four methods (A to D). […]
(§2) The value of inhibitory activity against MMP-2, MMP-8, MMP-9, MMP-12, and MMP-13 measured by above mentioned methods are shown in Table 25 and 26.

MMP-13 = MMP-13 (Homo sapiens, UniProt P45452); experiment: Assay for inhibitory activities on MMPs (fluorogenic peptide substrate), MMP-13; settings: read-out: MMP inhibitory activity IC50 MMP-13
MMP-8 = MMP-8 (Homo sapiens, UniProt P22894); experiment: Assay for inhibitory activities on MMPs (fluorogenic peptide substrate), MMP-8; settings: read-out: MMP inhibitory activity IC50 MMP-8
From the text: In regard to MMP-8, catalytic domain (^99Phe˜^262Gly) was amplified with PCR using commercial available Human Bone Marrow cDNA. This was cloned in Escherichia coli expression vector pTrc99AHE inserted with His-tag sequence and enterokinase digestion-site, induced and expressed by IPTG (Isopropyl-β-D-thiogalactopyranoside) and expressed in a insoluble fraction (Than F. Ho, M. Walid Qoronfleh, Robert C. Wahl, Trica A. Pulvino, Karen J. Vavra, Joe Falvo, Tracey M. Banks, Patricia G. Brake and Richard B. Ciccarelli: Gene expression, purification and characterization of recombinant human neutrophil collagenase. Gene 146, (1994) 297-301. It was prepared by the method in a slight modification). Isolation of MMP-8 from an insoluble fraction was carried out by dissolving in modifier (6 M urea) by a usual method and purification with metal chelate chromatography. And then removing modifier (6 M urea) with dialysis and refolding of the enzyme spontaneously gave activated MMP-8.
(§3) The enzymatic activity on MMPs was analyzed by the method described in “C. […]
as §1, §2

MMP-9 = MMP-9 (Homo sapiens, UniProt P14780); experiment: Assay for inhibitory activities on MMPs (fluorogenic peptide substrate), MMP-9; settings: read-out: MMP inhibitory activity IC50 MMP-9
From the text: MMP-9 was isolated and purified by the procedure of Y. Okada et al. (Yasunori Okada, Yukio Gonoji, Katsumi Naka, Katsuro Tomita, Isao Nakanishi, Kazushi Iwata, Kyoko Yamashita, and Taro Hayakawa: Matrix metalloproteinase 9 (92-kDa gelatinase/type IV collagenase) from HT1080 human fibrosarcoma cells. Purification and activation of the precursor and enzymic properties, J. Biol. Chem., 1992, 267, 21712-21719) in combination with other following methods: 1) Yasunori Okada, Tatsuhisa Morodomi, Jan J, Enghild, Ko Suzuki, Atsushi Yasui, Isao Nakanishi, Guy Salvesen and Hideaki Nagase: Matrix metalloproteinase 2 from human rheumatoid synovial fibroblasts. Purification and activation of the precursor and enzymic properties, Eur. J. Biochem., 1990, 194, 721-730; 2) Robin V Ward, Rosalind M Hembry, John J Reynolds and Gillian Murphy: The purification of tissue inhibitor of metalloproteinase-2 from its 72 kDa progelatinase complex. Biochem. J., 1991, 278, 179-187. […]
as §3, §1, §2

MMP-2 = MMP-2 (Homo sapiens, UniProt P08253); experiment: Assay for inhibitory activities on MMPs (fluorogenic peptide substrate), MMP-2; settings: read-out: MMP inhibitory activity IC50 MMP-2
Protocol: MMP-2 was purchased from Calbiochem-Novabiochem International, Inc.
The enzymatic activity on MMPs was analyzed by the method described in “C. Graham Knight, Frances Willenbrock and Gillian Murphy: A novel coumarin-labelled peptide for sensitive continuous assays of the matrix metalloproteinases: FEBS LETT., 296, (1992), 263-266”. The substrate: MOCAc-Pro-Leu-Gly-Leu-A2Pr(DNP)-Ala-Arg-NH2 was purchased from Peptide Institute, Inc., Osaka, Japan. The measurement of the inhibitory activities (IC50) was carried out by the following four methods;
(A) Reaction with substrate, enzyme (MMPs) and inhibitor
(B) Reaction with substrate and inhibitor, without enzyme
(C) Reaction with substrate and enzyme (MMPs), without inhibitor
(D) Reaction with substrate only
IC50 values were calculated by using the following formula and each fluorescence values of above four methods (A to D).
% inhibition={1-(A−B)/(C−D)}×100
IC50 means the concentration required to inhibit 50% of the enzyme activity.
as §2

C[C@H](NS(=O)(=O)c1ccc(-c2ccc(OCc3ccc4ccccc4c3)cc2)s1)C(=O)O
IC50 (MMP-12): > 10 µM | IC50 (MMP-13): 0.119 µM | IC50 (MMP-8): > 10 µM | IC50 (MMP-9): > 10 µM | IC50 (MMP-2): > 10 µM
